The values that follow are results of earlier work, collected in publication PMC2665295.

This data set concerns the target CaMKII (UniProt Q9UQM7). The data set can be described thus: kinetics. Particulars: cited from earlier work.

Take Calmodulin (from UniProt P0DP29): the Kd is 0.074 µM.

Broadly, the Kd is the equilibrium constant for the complex coming apart.
